{"sequences": {"note": "The chains behind the UniProt entries cited, without tags or fusion partners.", "UniProt O34453, whole entry I218V": "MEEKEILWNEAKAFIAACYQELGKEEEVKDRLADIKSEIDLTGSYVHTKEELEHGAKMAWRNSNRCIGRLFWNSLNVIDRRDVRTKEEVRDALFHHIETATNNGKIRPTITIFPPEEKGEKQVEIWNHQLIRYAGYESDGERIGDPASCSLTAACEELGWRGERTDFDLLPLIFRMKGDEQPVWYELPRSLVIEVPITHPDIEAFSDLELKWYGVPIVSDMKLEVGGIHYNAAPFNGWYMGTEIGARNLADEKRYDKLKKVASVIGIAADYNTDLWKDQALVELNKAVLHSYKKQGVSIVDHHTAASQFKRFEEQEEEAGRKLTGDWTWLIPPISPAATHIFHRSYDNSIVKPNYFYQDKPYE"}, "source": "patent US10759791B2", "about": "“Mammalian and bacterial nitric oxide synthase inhibitors” (Northwestern University, priority 2014, dated 2020)", "molecular_target": "I218V bsNOS (Bacillus subtilis (strain 168), UniProt O34453, I218V)", "assay": "Imidazole displacement, spectral binding constant KS", "procedure": "Purified bsNOS was diluted to 2 μM into a buffered solution containing 50 mM Tris (pH 7.6), 10 mM NaCl, 100 μM dithiothreitol and 1 mM imidazole to generate a low spin heme. NOS inhibitors were titrated into the bsNOS-buffered solution and the conversion of the heme group from low spin to high spin was monitored using a Cary 3E UV-visible spectrophotometer.", "data": [{"smiles": "Cc1cc(N)nc(-c2ccc(CNCCc3cccc(F)c3)cc2)c1", "note": "[Compound 27, 6-(4-(((3-Fluorophenethyl)amino)methyl)phenyl)-4-methylpyridin-2-amine]", "values": [{"measurement": "fold tighter binding to Ile-218 (WT) over I218V", "result": "5-6 fold"}]}]}
